Data from patent publication EP1140925B1, “(3,4 DIHYDRO-2H-BENZO[1,4] OXAZINYL-METHYL)- 3-(1H-INDOL-3- YL)-ALKYL -AMINES” (Wyeth, priority 1999, dated 2000).

The chains behind the UniProt entries cited, without tags or fusion partners.
UniProt P08908, whole entry, looked up: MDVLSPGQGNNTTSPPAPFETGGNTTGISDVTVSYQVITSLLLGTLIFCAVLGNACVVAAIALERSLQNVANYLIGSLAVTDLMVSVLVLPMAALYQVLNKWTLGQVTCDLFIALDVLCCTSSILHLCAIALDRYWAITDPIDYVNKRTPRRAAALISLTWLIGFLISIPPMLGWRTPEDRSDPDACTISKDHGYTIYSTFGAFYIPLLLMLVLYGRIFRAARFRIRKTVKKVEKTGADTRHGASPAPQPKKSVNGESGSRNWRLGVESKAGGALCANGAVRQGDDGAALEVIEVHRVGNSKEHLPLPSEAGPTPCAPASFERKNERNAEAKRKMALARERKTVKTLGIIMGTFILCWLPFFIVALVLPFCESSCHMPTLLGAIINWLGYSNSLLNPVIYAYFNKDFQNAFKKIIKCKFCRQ
UniProt P31652, whole entry, looked up: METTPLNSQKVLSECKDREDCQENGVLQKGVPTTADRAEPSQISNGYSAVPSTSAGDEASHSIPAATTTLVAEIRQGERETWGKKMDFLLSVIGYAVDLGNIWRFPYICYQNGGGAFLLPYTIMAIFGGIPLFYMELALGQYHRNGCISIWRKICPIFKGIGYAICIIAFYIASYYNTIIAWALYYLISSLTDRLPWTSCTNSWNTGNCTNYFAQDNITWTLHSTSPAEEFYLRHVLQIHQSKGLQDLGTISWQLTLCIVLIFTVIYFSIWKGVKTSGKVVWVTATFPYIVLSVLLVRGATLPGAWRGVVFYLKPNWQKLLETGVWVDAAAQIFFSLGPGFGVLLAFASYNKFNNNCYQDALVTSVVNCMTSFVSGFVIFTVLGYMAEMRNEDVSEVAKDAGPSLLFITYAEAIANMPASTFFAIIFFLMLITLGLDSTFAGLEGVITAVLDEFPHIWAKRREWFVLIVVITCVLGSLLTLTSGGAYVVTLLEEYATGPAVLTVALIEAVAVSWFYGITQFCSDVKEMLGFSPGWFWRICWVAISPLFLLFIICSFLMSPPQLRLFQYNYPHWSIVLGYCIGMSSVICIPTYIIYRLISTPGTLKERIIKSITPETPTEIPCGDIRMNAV

Tests used:
[1] = molecular target: human 5-HT1A receptor (Homo sapiens, UniProt P08908); assay: 5-HT1A receptor binding assay with [3H]8-OH-DPAT in CHO cell membranes; conditions: read-out: 5-HT1A (Ki); [3H]8-OH-DPAT 1.5 nM, membranes of CHO cells expressing human 5-HT1A receptor
[2] = molecular target: serotonin transporter (Rattus norvegicus, UniProt P31652); assay: Serotonin transporter affinity, 3H-paroxetine binding to frontal cortical membranes; set-up: species or system Sprague-Dawley rats; conditions: read-out: ST (Ki, nM, % Inh. @.1 µM), 3H-paroxetine 0.1 nM, head also allows % Inh. @.1 µM

c1ccc(N2CC(CNCCCCc3c[nH]c4ccccc34)Oc3ccccc32)cc1 (centres unmarked)
Ki [1]: 75.8 nM
Ki [2]: 7 nM
